# Source: PubChem BioAssay AID1531 (NMMLSC, 2009)
# The list shows a part of the results, in another mix than the full data. Some salts or complexes appear as unconnected parts, following the source record. The source made the active and inactive calls. Rule as the data show it: active = binding response below about 67% or above about 130%; inconclusive = no clear call, values can overlap the other calls; inactive = in between.
# Biological target: Mitogen-activated protein kinase kinase kinase 2 (Homo sapiens) (UniProt Q9Y2U5)
# Experiment: modulators of MEK5 binding to wildtype MEKK2, primary screen, biochemical, multiplex bead flow cytometry, Alexa488-MEK5 (AID 1531)
# Conditions: Alexa488-MEK5 binding to MEKK2 WT, at 10 µM, actives lie on both sides
row,SMILES,binding response (% of control)
1,Cc1nc2ccc3ccccc3c2s1.O=[N+]([O-])c1cc([N+](=O)[O-])c(O)c([N+](=O)[O-])c1,inactive: 106%
2,O=[N+]([O-])c1cc([N+](=O)[O-])c(-n2nnc3ccccc32)c([N+](=O)[O-])c1,inactive: 95%
3,CN1CCCCC1COC(=O)C1(O)c2ccccc2CCc2ccccc21 (stereo not drawn),inactive: 95%
4,COc1ccccc1OP(C)(=O)Nc1c(C)cccc1C (stereo not drawn),active: 1% [inhibitor]
5,CP(=O)(Nc1ccc(SC(F)(F)F)cc1)Oc1ccccc1 (stereo not drawn),inactive: 101%
6,CCCOc1ccc(NP(C)(=O)Oc2ccc(Cl)cc2)cc1 (stereo not drawn),inactive: 91%
7,CCOC(=O)C(CC)C1=NC(C)(C)Cc2ccccc21.O=[N+]([O-])c1cc([N+](=O)[O-])c(O)c([N+](=O)[O-])c1 (stereo not drawn),inactive: 124%
8,O=[N+]([O-])c1cc([N+](=O)[O-])c(Nc2nnnn2CCO)c([N+](=O)[O-])c1,inactive: 104%
9,CC1=NCCc2c1[nH]c1ccccc21.O=[N+]([O-])c1cc([N+](=O)[O-])c(O)c([N+](=O)[O-])c1,inactive: 112%
10,O=C(O)c1cccc(Nc2c([N+](=O)[O-])cc([N+](=O)[O-])cc2[N+](=O)[O-])c1,inactive: 91%
11,Cc1ccc(C)c(NP(C)(=O)Oc2ccccc2)c1 (stereo not drawn),inactive: 103%
12,CP(=O)(Nc1cccc(Br)c1)Oc1ccccc1 (stereo not drawn),inactive: 98%
13,Cc1cc(C)cc(OP(C)(=O)Nc2ccccn2)c1 (stereo not drawn),inactive: 98%
14,COc1ccccc1OP(C)(=O)Nc1cccc(Br)c1 (stereo not drawn),inactive: 95%
15,CCOC(=O)c1ccc(NP(C)(=O)Oc2cc(C)cc(C)c2)cc1 (stereo not drawn),inactive: 103%
16,Cc1cc(C)cc(OP(C)(=O)Nc2ccc(C)cc2C)c1 (stereo not drawn),inactive: 107%
17,CCN(CC)CCCOC(=O)C(O)(c1ccccc1)c1ccccc1,inactive: 85%
18,COc1ccccc1OP(C)(=O)Nc1ccc(C)cc1 (stereo not drawn),inactive: 98%
19,CCOC(=O)c1ccc(NP(C)(=O)Oc2ccccc2)cc1 (stereo not drawn),inactive: 97%
20,Cc1cc(C)cc(OP(C)(N)=O)c1 (stereo not drawn),inactive: 97%
21,COc1ccccc1OP(C)(=O)Nc1cc(Cl)ccc1C (stereo not drawn),inactive: 102%

row,SMILES,binding response (% of control)
1,O=[N+]([O-])c1ccc2c(c1)C=Nc1ccccc1O2,inactive: 103%
2,Cc1cccc(C)c1OP(C)(N)=O (stereo not drawn),inactive: 96%
3,CC(C)(C)c1ccc(OP(C)(=O)Nc2ccc(SC(F)(F)F)cc2)cc1 (stereo not drawn),inactive: 101%
4,CP(=S)(Nn1cnnc1)Oc1ccccc1 (stereo not drawn),inactive: 100%
5,CP(=O)(Nc1ccccc1Br)Oc1ccccc1 (stereo not drawn),inactive: 99%
6,COc1ccccc1OP(C)(=O)Nc1ccccc1 (stereo not drawn),inactive: 96%
7,CCOC(=O)c1ccc(NP(C)(=O)Oc2ccc(OC)cc2)cc1 (stereo not drawn),inactive: 99%
8,CCOP(C)(=S)SCC(=O)NC(C)C(=O)O (stereo not drawn),inactive: 95%
9,CP(=O)(Nc1ccccn1)Oc1ccc(Cl)cc1 (stereo not drawn),inactive: 100%
10,CP(=O)(Oc1ccccc1)OC(c1ccccc1)C(F)(F)F (stereo not drawn),inactive: 101%
11,CP(=O)(Nc1ccc(SC(F)(F)F)cc1)Oc1ccc(Cl)cc1 (stereo not drawn),inactive: 92%
12,Cc1cccc(C)c1OP(C)(=O)Nc1ccc(SC(F)(F)F)cc1 (stereo not drawn),inactive: 105%
13,Cc1cc(C)cc(OP(C)(=O)Nc2ccc(SC(F)(F)F)cc2)c1 (stereo not drawn),inactive: 101%
14,CCc1ccc(OP(C)(=O)N2CCN(c3ccc([N+](=O)[O-])cc3)CC2)cc1 (stereo not drawn),inactive: 90%
15,CP(=O)(NC(=O)Nc1ccccc1)Oc1ccccc1 (stereo not drawn),inactive: 95%
16,CC(C)(C)c1ccc(OP(C)(=O)O)cc1,inactive: 108%
17,COc1ccccc1OP(C)(=O)Nc1ccccc1Br (stereo not drawn),inactive: 92%
18,CP(=O)(Nc1ccc(Cl)cc1)Oc1ccc(F)cc1 (stereo not drawn),inactive: 116%
19,CN(C)C(=O)c1c([N+](=O)[O-])cc([N+](=O)[O-])cc1[N+](=O)[O-],inactive: 96%
20,COc1ccc(OP(C)(=O)Nc2ccc(Br)cc2)cc1 (stereo not drawn),inactive: 96%
21,CCN(CC)CC(O)COC(=O)C(O)(c1ccccc1)C1CCCCC1 (stereo not drawn),inactive: 104%

row,SMILES,binding response (% of control)
1,O=C(OCCCN1CCCC1)C(O)(c1ccccc1)C1CCCCC1 (stereo not drawn),inactive: 99%
2,COc1ccccc1OP(C)(=O)Nc1c(C)n(C)n(-c2ccccc2)c1=O (stereo not drawn),inactive: 107%
3,CCc1ccc(OP(C)(=O)Nc2cccnc2)cc1 (stereo not drawn),inactive: 89%
4,CP(=O)(Oc1ccccc1)N1CCOC1=O (stereo not drawn),inactive: 100%
5,CCOC(=O)c1ccc(NP(C)(=O)Oc2ccc(Cl)cc2)cc1 (stereo not drawn),inactive: 100%
6,CP(=O)(OC12CC3CC(CC(C3)C1)C2)OC12CC3CC(CC(C3)C1)C2,inactive: 99%
7,Cc1nc2ccc3ccccc3c2o1.O=[N+]([O-])c1cc([N+](=O)[O-])c(O)c([N+](=O)[O-])c1,inactive: 93%
8,CP(=O)(OCCOc1ccccc1)OCCOc1ccccc1,inactive: 106%
9,CP(=O)(Nc1ccc(Cl)cc1Cl)Oc1ccccc1 (stereo not drawn),inactive: 94%
10,Cc1cc(C)cc(OP(C)(=O)Nc2cccc(C(F)(F)F)c2)c1 (stereo not drawn),inactive: 90%
11,COc1ccccc1OP(C)(=O)Nc1ccc(C)c(C)c1 (stereo not drawn),inactive: 95%
12,COc1ccc(OP(C)(=O)Nc2ccccc2Br)cc1 (stereo not drawn),inactive: 93%
13,O=[N+]([O-])c1cc([N+](=O)[O-])c(Nc2ccccn2)c([N+](=O)[O-])c1,inactive: 89%
14,Cc1c(NP(C)(=O)Oc2ccc(C(C)C)cc2)c(=O)n(-c2ccccc2)n1C (stereo not drawn),inactive: 111%
15,COc1ccccc1OP(C)(=O)Nc1ccc(C)cc1C (stereo not drawn),inactive: 111%
16,CP(=O)(Nc1ccccn1)Oc1ccccc1 (stereo not drawn),inactive: 107%
17,CCc1ccc(OP(C)(=O)O)cc1,inactive: 107%
18,COc1ccccc1OP(C)(=O)Nc1ccc(Br)cc1 (stereo not drawn),inactive: 94%
19,COc1ccc(OP(C)(=O)Nc2ccccn2)cc1 (stereo not drawn),inactive: 109%
20,CN(C)CCOC(=O)C(O)(c1ccccc1)C1CCCC1 (stereo not drawn),inactive: 105%
21,O=C(OC1CN2CCC1CC2)c1ccc([N+](=O)[O-])cc1 (stereo not drawn),inactive: 98%

row,SMILES,binding response (% of control)
1,O=C(OCCN1CCN(CCOCc2ccccc2)CC1)C(O)(c1ccccc1)c1ccccc1,inactive: 98%
2,COc1ccc2c(c1O)-c1c(O)c(OC)cc3c1[C@H](C2)[N+](C)(C)CC3.O=[N+]([O-])c1cc([N+](=O)[O-])c([O-])c([N+](=O)[O-])c1[O-],inactive: 97%
3,CP(=O)(Nc1ccccc1F)Oc1ccccc1 (stereo not drawn),inactive: 104%
4,CC(C)c1ccc(OP(C)(=O)Nc2ccc(SC(F)(F)F)cc2)cc1 (stereo not drawn),inactive: 97%
5,CCN(CC)CCCOC(=O)C(O)(c1ccccc1)C1CCCCC1 (stereo not drawn),inactive: 107%
6,CP(=O)(Nc1ccccc1)Oc1ccc(F)cc1 (stereo not drawn),inactive: 99%
7,O=[N+]([O-])c1cc([N+](=O)[O-])c(OC2CCCCC2O)c([N+](=O)[O-])c1 (stereo not drawn),inactive: 105%
8,CCCCCOc1ccc(NP(C)(=O)Oc2ccc(Cl)cc2Cl)cc1 (stereo not drawn),inactive: 91%
9,CCOC(=O)c1ccc(NP(C)(=O)Oc2ccc(F)cc2)cc1 (stereo not drawn),inactive: 96%
10,COc1ccc(OP(C)(=O)Nc2ccc(SC(F)(F)F)cc2)cc1 (stereo not drawn),inactive: 82%
11,O=[N+]([O-])c1ccc(OP2(=O)COCCO2)cc1 (stereo not drawn),inactive: 103%
12,O=[N+]([O-])c1cc([N+](=O)[O-])c(NCC2CCS(=O)(=O)C2)c([N+](=O)[O-])c1 (stereo not drawn),inactive: 98%
13,Cc1cc(-c2cccc3ccccc23)c(C)cn1.O=[N+]([O-])c1cc([N+](=O)[O-])c(O)c([N+](=O)[O-])c1,inactive: 97%
14,COc1ccc(OP(C)(=O)Nc2cccc(Br)c2)cc1 (stereo not drawn),inactive: 100%
15,CN(C)CCOC(=O)C(O)(c1ccccc1)C1CCCCC1 (stereo not drawn),inactive: 99%
16,COc1ccc(NP(C)(=O)Oc2ccccc2OC)cc1 (stereo not drawn),inactive: 101%
17,CP(=O)(Nc1ccc2c(c1)OCCO2)Oc1ccccc1 (stereo not drawn),inactive: 107%
18,Cc1ccccc1NP(C)(=O)Nc1ccccc1C,inactive: 103%
19,CP(=O)(Nc1ccc(SC(F)(F)F)cc1)Oc1ccc(F)cc1 (stereo not drawn),inactive: 91%
20,CCOP(C)(=S)SCC(=O)NC(C)(CC)C(=O)O (stereo not drawn),inactive: 102%
